The record followed here is BindingDB's records for PubMed 8450829 (Cnrs, 1993).

By UniProt entry, the sequences of proteins in these tests, tags left out.
UniProt P31387, whole entry: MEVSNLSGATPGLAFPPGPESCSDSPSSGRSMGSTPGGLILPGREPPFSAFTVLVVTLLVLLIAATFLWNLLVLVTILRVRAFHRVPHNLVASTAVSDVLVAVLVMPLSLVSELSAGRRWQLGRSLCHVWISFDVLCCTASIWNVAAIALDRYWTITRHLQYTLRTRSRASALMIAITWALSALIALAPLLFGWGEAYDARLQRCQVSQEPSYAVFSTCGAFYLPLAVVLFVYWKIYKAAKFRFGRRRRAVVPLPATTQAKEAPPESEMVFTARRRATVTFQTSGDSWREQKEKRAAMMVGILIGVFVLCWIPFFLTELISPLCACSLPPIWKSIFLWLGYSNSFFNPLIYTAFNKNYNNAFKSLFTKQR

The assay has as its target 5-hydroxytryptamine receptor 5B (Mus musculus, UniProt P31387).

Compound `COC(=O)[C@@H]1[C@H]2C[C@H]3c4[nH]c5ccccc5c4CCN3C[C@@H]2CC[C@@H]1O` [yohimbic acid methyl ester] displayed a Ki of 1000 nM.

The term Ki denotes a measure of affinity in units of concentration, obtained from inhibition or displacement.
